# Assay results as given in patent publication US10112926B2 (priority 2014, dated 2018).
# By UniProt entry, the sequences of proteins in these tests, tags left out. Where a name states a change or a piece, a line headed by the entry shows the natural chain unless it says otherwise.
# UniProt P42336, whole entry, looked up: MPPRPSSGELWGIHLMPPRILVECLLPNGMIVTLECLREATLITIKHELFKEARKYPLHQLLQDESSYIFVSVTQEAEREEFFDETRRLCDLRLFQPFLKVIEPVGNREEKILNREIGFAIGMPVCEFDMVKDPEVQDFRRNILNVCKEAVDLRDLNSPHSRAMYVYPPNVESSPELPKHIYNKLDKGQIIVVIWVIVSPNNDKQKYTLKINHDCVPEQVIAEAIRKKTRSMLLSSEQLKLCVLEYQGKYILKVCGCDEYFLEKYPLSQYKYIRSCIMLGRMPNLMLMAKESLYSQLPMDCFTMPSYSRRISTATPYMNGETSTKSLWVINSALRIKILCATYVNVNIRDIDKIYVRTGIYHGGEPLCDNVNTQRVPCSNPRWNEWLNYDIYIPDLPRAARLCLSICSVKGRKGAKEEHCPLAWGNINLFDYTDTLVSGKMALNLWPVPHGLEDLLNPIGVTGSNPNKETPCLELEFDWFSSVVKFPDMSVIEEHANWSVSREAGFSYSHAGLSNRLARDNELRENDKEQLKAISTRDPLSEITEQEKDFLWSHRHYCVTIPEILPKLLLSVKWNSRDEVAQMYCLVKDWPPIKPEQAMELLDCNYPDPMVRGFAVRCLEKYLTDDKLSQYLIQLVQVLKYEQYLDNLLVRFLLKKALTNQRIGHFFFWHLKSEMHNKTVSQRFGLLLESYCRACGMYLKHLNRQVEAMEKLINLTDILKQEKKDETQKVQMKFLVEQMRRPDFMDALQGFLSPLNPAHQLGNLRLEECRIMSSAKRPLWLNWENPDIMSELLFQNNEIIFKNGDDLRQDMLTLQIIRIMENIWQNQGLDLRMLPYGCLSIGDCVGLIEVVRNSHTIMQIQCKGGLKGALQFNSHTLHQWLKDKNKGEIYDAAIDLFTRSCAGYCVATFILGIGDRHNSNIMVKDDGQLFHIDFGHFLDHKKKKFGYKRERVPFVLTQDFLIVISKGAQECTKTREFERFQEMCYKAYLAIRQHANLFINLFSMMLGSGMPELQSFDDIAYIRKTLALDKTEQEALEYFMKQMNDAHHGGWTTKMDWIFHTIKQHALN
# UniProt P42338: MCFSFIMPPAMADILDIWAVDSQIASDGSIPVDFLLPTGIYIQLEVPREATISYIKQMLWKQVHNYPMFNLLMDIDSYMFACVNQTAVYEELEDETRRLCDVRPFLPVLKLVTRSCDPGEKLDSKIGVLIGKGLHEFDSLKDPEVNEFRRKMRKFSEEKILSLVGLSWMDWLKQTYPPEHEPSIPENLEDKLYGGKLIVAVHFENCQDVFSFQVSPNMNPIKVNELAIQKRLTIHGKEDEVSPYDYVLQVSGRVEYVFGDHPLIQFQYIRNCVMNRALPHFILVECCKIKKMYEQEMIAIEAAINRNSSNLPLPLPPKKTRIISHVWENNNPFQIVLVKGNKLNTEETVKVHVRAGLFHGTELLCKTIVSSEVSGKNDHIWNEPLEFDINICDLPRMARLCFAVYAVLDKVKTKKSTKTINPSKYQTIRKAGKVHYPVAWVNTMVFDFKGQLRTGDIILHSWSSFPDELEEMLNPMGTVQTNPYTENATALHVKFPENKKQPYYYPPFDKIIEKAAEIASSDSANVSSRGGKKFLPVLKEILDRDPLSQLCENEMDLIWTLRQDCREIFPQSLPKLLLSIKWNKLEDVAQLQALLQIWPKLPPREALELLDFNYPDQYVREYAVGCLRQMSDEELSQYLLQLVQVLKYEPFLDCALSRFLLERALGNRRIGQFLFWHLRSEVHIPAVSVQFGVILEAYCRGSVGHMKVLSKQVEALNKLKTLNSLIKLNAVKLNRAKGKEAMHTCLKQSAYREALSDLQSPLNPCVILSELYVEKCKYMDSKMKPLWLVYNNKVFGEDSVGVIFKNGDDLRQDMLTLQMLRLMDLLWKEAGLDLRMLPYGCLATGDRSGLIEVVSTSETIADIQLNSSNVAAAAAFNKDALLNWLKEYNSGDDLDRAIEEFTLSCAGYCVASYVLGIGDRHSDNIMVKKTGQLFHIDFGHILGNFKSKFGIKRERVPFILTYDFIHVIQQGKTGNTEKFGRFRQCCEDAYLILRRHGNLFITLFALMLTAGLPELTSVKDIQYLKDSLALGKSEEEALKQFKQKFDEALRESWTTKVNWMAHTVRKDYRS
# Tests used:
# PI 3-kinase alpha = PI 3-kinase alpha (Homo sapiens (Human), UniProt P42336); settings: read-out: Assay A PI3Kα IC50
# PI 3-kinase beta = PI 3-kinase beta (Homo sapiens (Human), UniProt P42338); settings: read-out: Assay B PI3Kβ IC50
# [1] = target: PI 3-kinase alpha (Rat-1 pBABEpuro Myr-HA-hp110 alpha cells) (Homo sapiens (Human), UniProt P42336); experiment: cell-based; settings: Assay H PI3Kα IC50
# [2] = target: PI 3-kinase beta (Rat-1 pBABEpuro Myr-HA-hp110 beta cells) (Homo sapiens (Human), UniProt P42338); experiment: cell-based; settings: Assay I PI3Kβ IC50
SMILES,IC50 (PI 3-kinase alpha) [nM],IC50 (PI 3-kinase beta) [nM],IC50 [1] [nM],IC50 [2] [nM]
"Cc1cc(-c2cc(-c3cc(S(=O)(=O)NCC4(CO)CCCCC4)ccc3C)cnc2N)on1 [Example 37.3, 3-(6-Amino-5-(3-methylisoxazol-5-yl)pyridin-3-yl)-N-((1-(hydroxymethyl)cyclohexyl)methyl)-4-methylbenzenesulfonamide]",140,2100,1710,> 10000
"Cc1noc(-c2cc(-c3cc(S(=O)(=O)N[C@H]4CC[C@H](CO)CC4)ccc3C)cnc2N)n1 [Example 19, trans 3-[6-Amino-5-(3-methyl-[1,2,4]oxadiazol-5-yl)-pyridin-3-yl]-N-(4-hydroxymethyl-cyclohexyl)-4-methyl-benzenesulfonamide hydrochloride]",40,100,220,750
"Cc1cccc(NS(=O)(=O)c2ccc(C)c(-c3cnc(N)c(-c4cnn(CC(F)(F)F)c4)c3)c2)n1 [Example 1, 3-{6-Amino-5-[1-(2,2,2-trifluoro-ethyl)-1H-pyrazol-4-yl]-pyridin-3-yl}-4-methyl-N-(6-methyl-pyridin-2-yl)-benzenesulfonamide]",190,4050,7080,5980
"Cc1ncc(-c2cc(-c3cc(S(=O)(=O)NCCC(C)(C)O)ccc3C)cnc2N)s1 [Example 4, 3-(6-Amino-5-(2-methylthiazol-5-yl)pyridin-3-yl)-N-(3-hydroxy-3-methylbutyl)-4-methylbenzenesulfonamide]",190,1870,1250,2310
"Cc1ccc(S(=O)(=O)NCCC(C)(C)O)cc1-c1cnc(N)c(-c2cnn(C)n2)c1 [Example 106, 3-(6-amino-5-(2-methyl-2H-1,2,3-triazol-4-yl)pyridin-3-yl)-N-(3-hydroxy-3-methylbutyl)-4-methylbenzenesulfonamide]",330,2700,1140,1020
"Cc1noc(-c2cc(-c3cc(S(=O)(=O)NCC(C)(F)F)ccc3C)cnc2N)n1 [Example 37.38, 3-(6-Amino-5-(3-methyl-1,2,4-oxadiazol-5-yl)pyridin-3-yl)-N-(2,2-difluoropropyl)-4-methylbenzenesulfonamide]",550,> 10000,> 10000,> 10000
"Cc1cc(-c2cc(-c3cc(S(=O)(=O)NCCC4(O)CCCC4)ccc3C)cnc2N)on1 [Example 37.16, 3-(6-Amino-5-(3-methylisoxazol-5-yl)pyridin-3-yl)-N-(2-(1-hydroxycyclopentyl)ethyl)-4-methylbenzenesulfonamide]",70,1200,1160,6000
"Cc1cc(-c2cc(-c3cc(S(=O)(=O)NCC4(O)CCOCC4)ccc3C)cnc2N)on1 [Example 54, 3-(6-Amino-5-(3-methylisoxazol-5-yl)pyridin-3-yl)-N-((4-hydroxytetrahydro-2H-pyran-4-yl)methyl)-4-methylbenzenesulfonamide]",790,4500,> 10000,> 10000
"Cc1ccc(S(=O)(=O)NCC(C)(C)O)cc1-c1cnc(N)c(-c2cnoc2C)c1 [Example 62, 3-(6-Amino-5-(5-methylisoxazol-4-yl)pyridin-3-yl)-N-(2-hydroxy-2-methylpropyl)-4-methylbenzenesulfonamide]",1200,> 10000,> 10000,> 10000
"Cc1cc(-c2cc(-c3cc(S(=O)(=O)NCC4(CO)CCOCC4)ccc3C)cnc2N)on1 [Example 37.1, 3-(6-Amino-5-(3-methylisoxazol-5-yl)pyridin-3-yl)-N-((4-(hydroxymethyl)tetrahydro-2H-pyran-4-yl)methyl)-4-methylbenzenesulfonamide]",340,5500,5830,4220
"Cc1noc(-c2cc(-c3cc(S(=O)(=O)NCCC(C)(C)O)ccc3C)cnc2N)n1 [Example 5, 3-[6-Amino-5-(3-methyl-[1,2,4]oxadiazol-5-yl)-pyridin-3-yl]-N-(3-hydroxy-3-methyl-butyl)-4-methyl-benzenesulfonamide hydrochloride]",80,1150,740,1440
"Cc1noc(-c2cc(-c3cc(S(=O)(=O)NCC(C)(C)CO)ccc3C)cnc2N)n1 [Example 37.18, 3-(6-Amino-5-(3-methyl-1,2,4-oxadiazol-5-yl)pyridin-3-yl)-N-(3-hydroxy-2,2-dimethylpropyl)-4-methylbenzenesulfonamide hydrochloride]",470,220,> 10000,3360
"Cc1noc(-c2cc(-c3cc(S(=O)(=O)NCC4(C)COC4)ccc3C)cnc2N)n1 [Example 4.9, 3-(6-Amino-5-(3-methyl-1,2,4-oxadiazol-5-yl)pyridin-3-yl)-4-methyl-N-((3-methyloxetan-3-yl)methyl)benzene-sulfonamide]",620,4500,> 10000,> 10000
"COC1(C)CN(S(=O)(=O)c2ccc(C)c(-c3cnc(N)c(-c4nc(C)no4)c3)c2)C1 [Example 37.2, 5-(5-((3-Methoxy-3-methylazetidin-1-yl)sulfonyl)-2-methylphenyl)-3-(3-methyl-1,2,4-oxadiazol-5-yl)pyridin-2-amine]",1400,> 10000,> 10000,> 10000
"Cc1ncc(-c2cc(-c3cc(S(=O)(=O)NCCCO)ccc3C)cnc2N)s1 [Example 9, 3-[6-Amino-5-(2-methyl-thiazol-5-yl)-pyridin-3-yl]-N-(3-hydroxy-propyl)-4-methyl-benzenesulfonamide]",300,> 9100,5190,5120
"Cc1noc(-c2cc(-c3cc(S(=O)(=O)NCC4(O)CCC4)ccc3C)cnc2N)n1 [Example 37.15, 3-(6-Amino-5-(3-methyl-1,2,4-oxadiazol-5-yl)pyridin-3-yl)-N-((1-hydroxycyclobutyl)methyl)-4-methylbenzenesulfonamide]",290,3900,2070,3610
"Cc1noc(-c2cc(-c3cc(S(=O)(=O)NC(CO)C4CCOC4)ccc3C)cnc2N)n1 (stereo not shown) [Example 37.21, 3-(6-Amino-5-(3-methyl-1,2,4-oxadiazol-5-yl)pyridin-3-yl)-N-(2-hydroxy-1-(tetrahydrofuran-3-yl)ethyl)-4-methylbenzenesulfonamide]",1800,10000,> 10000,2520
"Cc1cc(-c2cc(-c3cc(S(=O)(=O)NCCC4(O)CCCCC4)ccc3C)cnc2N)on1 [Example 37.30, 3-(6-Amino-5-(3-methylisoxazol-5-yl)pyridin-3-yl)-N-(2-(1-hydroxycyclohexyl)ethyl)-4-methylbenzenesulfonamide]",100,1500,2670,5380
"Cc1ncc(-c2cc(-c3cc(S(N)(=O)=O)ccc3C)cnc2N)s1 [Example 74, 3-(6-Amino-5-(2-methylthiazol-5-yl)pyridin-3-yl)-4-methylbenzenesulfonamide]",520,5900,> 10000,> 10000

# Counter-ions that a name gives are not always drawn.
